# System: colorectal carcinoma cell line HCT-116
# Settings: ex vivo cultured (day 19) PINK cells pre-treated for 24 hours, then co-cultured with HCT-116; untreated PINK cells 24.3%
smiles,measurement,value
"Nc1cccc2c1C(=O)N(C1CCC(=O)NC1=O)C2=O (racemic) [pomalidomide, 4-amino-2-[(3RS)-2,6-dioxopiperidin-3-yl)-1H-isoindole-1,3(2H)-dione]",cytotoxicity,47.4%
